Assay results published in patent US10472315B2, “Inhibitors of methionine aminopeptidases and methods of treating disorders” (THE JOHNS HOPKINS UNIVERSITY, priority 2009, dated 2019).

Chains of the proteins cited; added tags and fusions are not shown.
UniProt P50579, whole entry: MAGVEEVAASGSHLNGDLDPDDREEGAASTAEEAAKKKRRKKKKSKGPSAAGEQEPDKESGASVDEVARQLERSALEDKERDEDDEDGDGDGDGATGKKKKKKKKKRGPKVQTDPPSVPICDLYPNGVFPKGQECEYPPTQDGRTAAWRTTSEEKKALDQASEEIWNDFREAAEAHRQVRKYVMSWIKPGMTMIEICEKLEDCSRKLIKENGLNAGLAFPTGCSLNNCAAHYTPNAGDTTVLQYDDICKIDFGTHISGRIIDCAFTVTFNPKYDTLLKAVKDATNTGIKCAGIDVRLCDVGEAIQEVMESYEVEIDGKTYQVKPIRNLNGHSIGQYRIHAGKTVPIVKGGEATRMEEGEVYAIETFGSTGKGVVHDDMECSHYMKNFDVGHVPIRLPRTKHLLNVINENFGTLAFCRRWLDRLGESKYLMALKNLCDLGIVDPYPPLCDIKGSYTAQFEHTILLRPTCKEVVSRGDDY

Target: HsMetAP2 (Homo sapiens, UniProt P50579)
Assay: Inhibition of HsMetAP2 (orthologous MetAP selectivity)
Format: biochemical
Conditions: read-out: inhibit HsMetAP2 (avidity)

O=C1C(Cl)=C(N2C(=O)c3c(Cl)c(Cl)c(Cl)c(Cl)c3C2=O)C(=O)c2ccccc21 [Compound 2]
IC50: 2.31 µM
